From patent publication US20250177555A1 (priority 2022, published 2025)
Structures can show the parent of a compound that is named as a salt.

How the values were obtained:
[1] = tested on: CNV-G-GFP11/DmrC-GFP1-10/DmrA-Cre Gectosomes in HeLa-ColorSwitch cells; experiment: cells; assay type: cell-based; conditions: read-out: IC50, percentage of switched cells
[2] = tested on: VSV-G gectosome-mediated Cre delivery; assay type: cell-based

SMILES	IC50 [1]	inhibition of VSV-G gectosome-mediated Cre delivery [2]
COc1cc2c3cc1Oc1c(OC)c(OC)cc4c1[C@@H](Cc1ccc(O)c(c1)Oc1ccc(cc1)C[C@@H]3N(C)CC2)N(C)CC4 [Berbamine HCl]	2.4 µM	
C/C1=C/C(=O)O[C@@H]2C[C@@H](CC[C@H](C)/C=C\CC1)O[C@@](O)([C@@H]1CSC(=O)N1)C2 [Latrunculin B]		does not inhibit
COc1ccc2c(c1)CC[C@@H]1[C@@H]2CC[C@]2(C)[C@@H](NCCCCCCN3C(=O)C=CC3=O)CC[C@@H]12 [U-73122]		inhibits both
